Values of other authors, collected in US6878364B2, “Animal model for flaviviridae infection” (Cornell Research Foundation, Inc., priority 2000, dated 2005).

Tested on: HCV
Conditions: early and prompt treatment of patients acutely infected with HCV; cited from earlier work

interferon alpha-2b: an interferon analogue
patients in whom chronic infection was prevented: 98%
